This passage reports EC50 and IC50 results from patent US9169252B2 (BRISTOL-MYERS SQUIBB COMPANY, priority 2014, dated 2015).

Protein sequences, listed by entry. Tags and fused reporters are not part of them.
UniProt Q9NWZ3, whole entry: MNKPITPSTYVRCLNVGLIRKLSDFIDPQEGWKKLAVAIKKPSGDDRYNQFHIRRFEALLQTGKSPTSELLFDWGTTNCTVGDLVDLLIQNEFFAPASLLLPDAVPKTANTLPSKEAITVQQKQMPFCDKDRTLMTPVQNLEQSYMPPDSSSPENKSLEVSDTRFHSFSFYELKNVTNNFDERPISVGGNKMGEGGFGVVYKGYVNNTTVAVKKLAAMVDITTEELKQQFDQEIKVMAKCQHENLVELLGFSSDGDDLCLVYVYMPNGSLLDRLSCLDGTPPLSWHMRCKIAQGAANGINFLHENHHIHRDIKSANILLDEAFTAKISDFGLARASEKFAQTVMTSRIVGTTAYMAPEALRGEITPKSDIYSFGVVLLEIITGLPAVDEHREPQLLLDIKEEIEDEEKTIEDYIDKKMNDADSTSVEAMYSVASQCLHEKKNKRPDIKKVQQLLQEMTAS

By EC50 is commonly meant the concentration giving half of the maximal effect. One may read the IC50 as the concentration needed to halve the response being measured.

Assay [1] concerns TLR2 induced IL-6 in peripheral blood mononuclear cells (PBMCs). Kind of assay: PBMC TLR2 Induced IL-6 Assay. Format: cell-based. The conditions noted are these: human PBMCs, lipoteichoic acid stimulated, IL-6 by ELISA; for EC50: read-out: Cell EC50. How it is done: PBMC TLR2 Induced IL-6 Assay
Peripheral blood mononuclear cells (PBMCs) were isolated from human blood containing the anti-coagulant EDTA (2.5 mM) by centrifugation over a FICOLL® gradient. PBMCs (250000 cells/well) were cultured in assay media (RPMI with 10% heat inactivated FCS) with compounds for 30 minutes at 37° C. in a 5% CO2 incubator. Following pretreatment with compounds, cells were stimulated for 5 hours with 10 µg/ml lipoteichoic acid (Invivogen, San Diego, Calif.), a TLR2 agonist. At the end of the culture, plates were centrifuged at 1800 rpm for 10 minutes to pellet the cells. Supernatants were harvested and analyzed for IL-6 levels by ELISA (BD Biosciences, San Jose, Calif.).

Another assay addresses IRAK4 (Homo sapiens (Human), UniProt Q9NWZ3). Kind of assay: IRAK4 Inhibition Assay. Format: biochemical. The conditions noted are these: read-out: IRAK4 IC50; ATP 500 μM; IRAK4 0.6 nM.

On to `Cc1ccc(CNc2cc(-n3ccc4cc(C#N)cnc43)ncc2C(=O)NC[C@@H](F)C(C)(C)O)cn1`, for which the EC50 in assay [1] was 346 nM. Also, the IC50 in assay [1] (read-out: Cell IC50) is 1300 nM.
In the case of `CC(C)(O)[C@H](F)CNC(=O)c1cnc(-n2ccc3cc(C#N)cnc32)cc1NC1CCCC(CO)C1` (single isomer, unassigned) [Example 445], the IC50 at IRAK4 stood at 1.6 nM. In addition, in assay [1], the EC50 was found to be 31 nM.
